Test results from ChEMBL document CHEMBL1144878, “N-(omega-(4-(2-methoxyphenyl)piperazin-1-yl)alkyl)carboxamides as dopamine D2 and D3 receptor ligands” (J Med Chem, 2003).

Tested on: D(3) dopamine receptor (Homo sapiens)
Assay: Intrinsic activity for Dopamine receptor D3 was determined

| SMILES | Intrinsic activity |
| --- | --- |
| COc1ccccc1N1CCN(CCCCNC(=O)/C=C/c2ccc(Cl)cc2)CC1 | 0.7 |
| COc1ccccc1N1CCN(CCCCNC(=O)c2cc3ccccc3cn2)CC1 | 0.3 |
